High-throughput results from PubChem BioAssay.
Only some compounds are listed: those with a hit (about 1.3% of all), similar ones and a draw of the others.
GSIS activator = GLuc luminescence reporter in INS-1E cells, primary screen for activators of glucose-dependent secretion of insulin; INS-1E GLuc reporter insulin secretion, 2-3 h; activation, % at 16.6 µM; hit rate 0.61% among 370,000; AID 743287;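 active = lowest replicate activation of at least 40%, so every replicate reaches that level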;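 note: 0% = median of neutral control wells and 100% = median of IBMX positive control wells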
SR-BI uptake up = activators of SR-BI mediated HDL lipid uptake. CHO ldlA[mSR-BI] cells, DiI-HDL uptake fluorescence, 3 h; 100 = double the neutral-control signal. activation, % at 12.5 µM. hit rate 0.096% among 320,000. AID 504775;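 active = mean replicate activation of at least 60% and every replicate at or above 60%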;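 note: 0% = median plate neutral-control signal and 100% = twice that signal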
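Material: SR-BI-overexpressing, LDLR-lacking CHO cells; schedule: compound exposure 3 h, 37 °C; reagent: DiI-labelled HDL at 10 µg/mL final; technique: bottom-read fluorescence, 550/595 nm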
SR-BI HDL uptake = blocks mouse SR-BI lipid uptake from DiI-HDL; hit rate 0.96% among 320,000; inhibition, % at 12.5 µM; Q61009; ldlA[mSR-BI] CHO cells, DiI-HDL uptake fluorescence, 3 h; AID 488896;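 active = mean replicate inhibition of at least 70% and a set share of replicates each scoring 70 or more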;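 note: 0% = median of neutral control wells and 100% = median of positive control wells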
Yeast UUG start = modulators of start codon recognition fidelity in yeast; AID 602363; activity score, % at 18.7 µM; S. cerevisiae UUG-firefly luciferase reporter, luminescence/redox ratio; 0.13% of 350,000 active;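 active = replicate mean at a twofold rise or more, about +100% in these data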;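 note: firefly luciferase made from a UUG start codon reports start codon fidelity; reporter light over untreated wells divided by growth signal over untreated wells; some hits fall short of that in this replicate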
The depositor's hits bear a star; x = no result.

Structure	GSIS activator	SR-BI uptake up	SR-BI HDL uptake	Yeast UUG start
O=C(NCC[C@H]1CC[C@@H](NC(=O)c2cccnc2)[C@H](CO)O1)Nc1ccc(C(F)(F)F)cc1	5.1	x	x	x
CCN(CC(=O)Nc1ccccc1OC)C(=O)C1CCCC1	67.6*	1.5	-1.5	-20.4
C[C@H](CO)N1C[C@H](C)[C@@H](CN(C)S(=O)(=O)c2cn(C)cn2)Oc2ccc(NC(=O)CCC(F)(F)F)cc2CC1=O	31.3	x	x	77.6
COCCn1c(=NC(=O)c2cc(Cl)sc2Cl)sc2cc(S(N)(=O)=O)ccc21	169.7*	6.9	-6.9	-13.0
COCCn1c(=NC(=O)c2ccc3c(c2)OCCO3)sc2cc(S(N)(=O)=O)ccc21	-8.6	-45.7	45.7	x
O=C(O)C[C@@H]1C[C@@H]2c3cc(NC(=O)CC4CC4)ccc3O[C@@H]2[C@H](CO)O1	-9.8	x	x	-6.7
CN(C)C(=O)C[C@@H]1C[C@@H]2c3cc(NC(=O)Nc4ccccc4)ccc3O[C@@H]2[C@@H](CO)O1	-2.3	x	x	42.9*
O=C(O)C[C@@H]1C[C@@H]2c3cc(NC(=O)CC4CC4)ccc3O[C@@H]2[C@@H](CO)O1	4.0	x	x	49.8*
C[C@@H](NC(=O)C[C@@H]1C[C@@H]2c3cc(NC(=O)Nc4ccccc4F)ccc3O[C@@H]2[C@@H](CO)O1)c1ccccc1	105.5*	x	x	-3.0
C[C@@H](NC(=O)C[C@@H]1C[C@H]2c3cc(NC(=O)Nc4ccccc4F)ccc3O[C@H]2[C@H](CO)O1)c1ccccc1	12.3	x	x	-2.1
CCCNC(=O)N1CC(=O)N2[C@H](CO)[C@@H](c3ccc(-c4ccc(C)cc4)cc3)[C@H]2C1	-3.3	x	x	x
Cc1noc(C)c1S(=O)(=O)N(C)C[C@H]1Oc2ccc(NC(=O)Nc3ccc(C(F)(F)F)cc3)cc2CC(=O)N([C@H](C)CO)C[C@H]1C	2.9	x	x	-8.0
C[C@@H](O)C#Cc1cnc2c(c1)C(=O)N([C@@H](C)CO)C[C@H](C)[C@H](CN(C)C(=O)c1ccncc1)O2	22.8	x	x	-17.7
C[C@@H]1CN([C@@H](C)CO)C(=O)c2cc(NC(=O)Nc3ccccc3)ccc2O[C@@H]1CN(C)Cc1ccc(Cl)c(Cl)c1	-30.2	x	x	3.5
C[C@@H]1CCCCO[C@@H](CN(C)Cc2ccncc2)[C@H](C)CN([C@H](C)CO)C(=O)c2cc(NC(=O)Nc3ccc4c(c3)OCO4)ccc2O1	-11.2	x	x	-8.6
Cc1c(C(=O)OCC(=O)N2CC(=O)Nc3ccccc32)oc2ccc(Br)cc12	72.9*	-19.3	19.3	-9.0
COc1ccc(NC(=O)C(NC(=O)Cc2cccs2)c2ccc(C)cc2)cc1 (stereo unspecified)	-2.8	64.5*	-64.5	-0.5
Cc1ccc(/C=C2\SC(=S)N(CCCC(=O)Nc3cc(C)on3)C2=O)cc1	10.0	8.5	-8.5	-58.4
Cc1cc(NC(=O)CCCN2C(=O)/C(=C\c3cccs3)SC2=S)no1	54.1*	30.4	-30.4	-8.2
CO[C@H]1CN(C)C(=O)c2ccc(NC(=O)c3ccccc3)cc2OC[C@@H](C)N(C(=O)C2CC2)C[C@H]1C	-5.6	x	x	x
CCCN1C(=O)c2cc(C(=O)Nc3ccc(OC)c(OC)c3)ccc2C1Nc1ccc(OC)c(OC)c1 (stereo unspecified)	0.2	-53.7	53.7	x
CCCN1C(=O)c2cc(C(=O)Nc3ccc(OC)cc3OC)ccc2C1Nc1ccc(OC)cc1OC (stereo unspecified)	-3.5	-73.7	73.7*	x
CCOC(=O)c1nn2c(C(F)(F)F)cc(-c3ccc(OC)cc3)nc2c1Br	16.8	-103.5	103.5*	-17.5
Cc1c(NC(=O)c2nn3c(C(F)(F)F)cc(-c4ccccc4)nc3c2Cl)c(=O)n(-c2ccccc2)n1C	10.9	-28.5	28.5	x
Cc1c(NC(=O)c2cc3nc(-c4ccc(Cl)cc4)cc(C(F)(F)F)n3n2)c(=O)n(-c2ccccc2)n1C	x	-70.0	70.0*	-16.4
COc1ccc(-c2cc(C(F)(F)F)n3nc(C(=O)Nc4c(C)n(C)n(-c5ccccc5)c4=O)cc3n2)cc1	-4.1	-79.6	79.5*	x
COc1ccc(-c2cc(C(=O)Nc3c(C)n(C)n(-c4ccccc4)c3=O)no2)cc1	-18.0	x	x	x
COc1ccc(-c2cc(C(F)(F)F)n3nc(C(=O)Nc4c(C)n(C)n(-c5ccccc5)c4=O)c(Cl)c3n2)cc1	-13.2	-79.5	79.5*	-28.0
CS(=O)(=O)N1[C@@H](CO)[C@@H](c2ccccc2)C12CN(Cc1cc(F)ccc1F)C2	-9.5	x	x	x
CC(C)NC(=O)N(C)C[C@@H]1Oc2c(cccc2N(C)C)C(=O)N(C)C[C@H]1C	3.7	x	x	x
COc1ccc(-c2cc(C(F)(F)F)n3nc(C(=O)NCCN4CCOCC4)cc3n2)cc1	-3.7	-76.9	76.9*	-4.7
Cc1c(NC(=O)c2cnn3c(C(F)(F)F)cc(-c4ccco4)nc23)c(=O)n(-c2ccccc2)n1C	x	-15.4	15.4	7.9
COc1cccc(-c2cc(C(F)(F)F)n3nc(C(=O)Nc4c(C)n(C)n(-c5ccccc5)c4=O)cc3n2)c1	-6.8	-78.4	78.4*	1.4
COc1ccc(-c2cc(C(F)(F)F)n3nc(C(=O)NCCCn4ccnc4)cc3n2)cc1	x	-63.8	63.8	-13.6
CC(C)NC(=O)Nc1ccc2c(c1)C(=O)N([C@H](C)CO)C[C@H](C)[C@H](CN(C)S(=O)(=O)c1ccc(Cl)cc1)O2	-5.1	x	x	0.1
N#CCCN(Cc1ccccc1)C(=O)c1cccs1	40.0*	-4.7	4.7	-5.2
C[C@@H]1CN(C)C(=O)Cc2ccccc2O[C@H]1CN(C)C(=O)OC(C)(C)C	21.1	x	x	x
CCC(=O)N1CCN(c2ccccc2NC(=S)NC(=O)c2cccc([N+](=O)[O-])c2)CC1	-12.4	-70.4	70.4*	x
COc1cccc(C(=O)NC(=S)Nc2ccccc2N2CCCC2)c1	5.6	-85.0	85.0*	x
CCC(=O)N1CCN(c2ccccc2NC(=O)c2ccc(-c3cccc([N+](=O)[O-])c3)o2)CC1	6.4	-75.7	75.7*	x
CCC(=O)N1CCN(c2ccc(Cl)cc2NC(=O)c2ccc([N+](=O)[O-])o2)CC1	10.0	-49.2	49.2	-30.7
CCC(=O)N1CCN(c2ccc(Cl)cc2NC(=O)c2cccc([N+](=O)[O-])c2)CC1	6.4	-70.8	70.8*	-17.3
COC(=O)[C@@H]1[C@@H](CO)[C@@H]2Cn3c(ccc(-c4ccccc4F)c3=O)[C@@H]2N1C(=O)c1ccccn1	4.0	x	x	x
C[C@@H]1CN([C@H](C)CO)C(=O)c2cc(NC(=O)CCCCCC(=O)Nc3ccccc3N)ccc2O[C@@H]1CN(C)S(=O)(=O)c1ccccc1	9.5	x	x	x
COCC(=O)N1CC2(CN(Cc3nccs3)C2)c2c(n(C)c3cc(OC)ccc23)[C@@H]1CO	70.6	x	x	x
CNC[C@@H]1OCCCC[C@@H](C)Oc2ccc(NC(=O)CCC(F)(F)F)cc2C(=O)N([C@@H](C)CO)C[C@H]1C	12.6	x	x	12.0
O=C(c1ccc(-c2cccc([N+](=O)[O-])c2)o1)N1CCN(c2ccc([N+](=O)[O-])cc2)CC1	0.0	-71.1	71.1*	-10.6
CC(C)C(=O)N1CCN(c2ccccc2NC(=S)NC(=O)c2ccco2)CC1	1.8	-81.3	81.3*	-15.4

Some of these compounds in order of the GSIS activator value, lowest first.
Structure	GSIS activator	SR-BI uptake up	SR-BI HDL uptake	Yeast UUG start
O=C(c1ccc(-c2cccc([N+](=O)[O-])c2)o1)N1CCN(c2ccc([N+](=O)[O-])cc2)CC1	0.0	-71.1	71.1*	-10.6
COC(=O)[C@@H]1[C@@H](CO)[C@@H]2Cn3c(ccc(-c4ccccc4F)c3=O)[C@@H]2N1C(=O)c1ccccn1	4.0	x	x	x
CCC(=O)N1CCN(c2ccccc2NC(=O)c2ccc(-c3cccc([N+](=O)[O-])c3)o2)CC1	6.4	-75.7	75.7*	x
C[C@@H]1CN([C@H](C)CO)C(=O)c2cc(NC(=O)CCCCCC(=O)Nc3ccccc3N)ccc2O[C@@H]1CN(C)S(=O)(=O)c1ccccc1	9.5	x	x	x
CNC[C@@H]1OCCCC[C@@H](C)Oc2ccc(NC(=O)CCC(F)(F)F)cc2C(=O)N([C@@H](C)CO)C[C@H]1C	12.6	x	x	12.0
